Among the data in PubChem BioAssay AID1048 (The Scripps Research Institute Molecular Screening Center, 2008) are TR-FRET ratio values, retold here.

Only a part is listed here, and it is no random draw. Activity calls are given as the source filed them. Cut-off read from the data, not from the text of the source: active = TR-FRET ratio above about 2000; inactive = the rest.

The test is described as follows: signal artefacts in PPARgamma/SRC-3 readout – biochemical, TR-FRET ratio, artefact control for PPARgamma SRC-3 recruitment agonists (AID 1048). As to conditions: TR-FRET artefact counter-screen, PPARgamma/SRC-3 format; at 8 µM; hits give high values.
With `N#Cc1ccc(C(=O)NCC2(N3CCCCC3)CCCCC2)cc1`, the TR-FRET ratio was inactive: 1650.

For the compound `O=C(OC1CN2CCC1CC2)C1c2ccccc2C=Cc2ccccc21` (stereo not given), the TR-FRET ratio was inactive: 1560.

As to `COc1ccc(C(=O)NCC2(N3CCOCC3)CCCCC2)cc1OC`, the TR-FRET ratio was inactive: 1550.

Take `COc1cc(OC)cc(C(=O)NCC2(N3CCOCC3)CCCCC2)c1`: the TR-FRET ratio was inactive: 1670.

As for `CC(C)(C)OC(=O)N1CCC(Nc2ccccc2)CC1`, the TR-FRET ratio was inactive: 1540.

On to `CN(C)c1ccc(C(=O)NCC2(N3CCCCC3)CCCCC2)cc1`, for which the TR-FRET ratio was inactive: 1320.

On to `CCN1CCC(Nc2cccc(F)c2)CC1`, for which the TR-FRET ratio is inactive: 1870.

For the compound `CCOC(=O)N1CCC(Nc2ccc(OC)cc2)CC1`, the TR-FRET ratio was inactive: 1390.

Consider `COc1ccc(C(=O)NCC2(N3CCCCC3)CCCCC2)c(OC)c1OC`, for which the TR-FRET ratio was inactive: 1590.

For the compound `COc1ccc(CN(CCCl)CCCl)cc1Cl`, the TR-FRET ratio was inactive: 1400.

Regarding `CN(C)c1cccc(C(=O)NCC2(N3CCCCC3)CCCCC2)c1`, the TR-FRET ratio was inactive: 1370.

`CC(C)c1ccc(NC2CCN(C(=O)OC(C)(C)C)CC2)cc1`: the TR-FRET ratio is inactive: 1520.

With `CN1CCN(CCOC(=O)C(O)(c2ccccc2)c2ccccc2)CC1`, the TR-FRET ratio was inactive: 1490.

Take `COc1ccc(NC2CCN(C(=O)OC(C)(C)C)CC2)cc1`: the TR-FRET ratio is inactive: 1540.

Take `O=C(NCC1(N2CCCCC2)CCCCC1)c1cccc([N+](=O)[O-])c1`: the TR-FRET ratio was inactive: 1660.
